Results: patent US8927023B2, “Biocompatible, non-biodegradable, non-toxic polymer useful for nanoparticle pharmaceutical compositions” (Fresenius Kabi Oncology Limited, priority 2005, dated 2015)

Test: Average particle size of the nanoparticles in the pharmaceutical composition
Assay type: physicochemical
From the text: This could be exemplified with respect to pharmaceutical compositions of two poorly water-soluble anticancer drugs or compounds, viz.

## CC(=O)O[C@H]1C(=O)[C@@]2(C)[C@H]([C@H](OC(=O)c3ccccc3)[C@]3(O)C[C@H](OC(=O)[C@H](O)[C@@H](NC(=O)c4ccccc4)c4ccccc4)C(C)=C1C3(C)C)[C@]1(OC(C)=O)CO[C@@H]1C[C@@H]2O [Paclitaxel]
1 ml ethanol solution into ≈35 ml, needle 0.305 mm, addition 6 Secs
  Average Particle Size (nm): 240 nm
1 ml ethanol solution into ≈35 ml, needle 0.467 mm, addition 2 Secs
  Average Particle Size (nm): 90 nm
1 ml ethanol solution into ≈35 ml, needle 0.467 mm, addition 6 Secs
  Average Particle Size (nm): 280 nm
1 ml ethanol solution into ≈35 ml, needle 0.711 mm, addition 2 Secs
  Average Particle Size (nm): 135 nm
1 ml ethanol solution into ≈35 ml, needle 0.711 mm, addition 6 Secs
  Average Particle Size (nm): 285 nm
1 ml ethanol solution into ≈35 ml, needle 1.270 mm, addition 2 Secs
  Average Particle Size (nm): 270 nm
1 ml ethanol solution into ≈35 ml, needle 1.270 mm, addition 6 Secs
  Average Particle Size (nm): 2300 nm
15 ml ethanol solution into ≈500 ml, needle 0.330 mm, addition 18 Secs
  Average Particle Size (nm): 50 nm
15 ml ethanol solution into ≈500 ml, needle 0.711 mm, addition 10 Secs
  Average Particle Size (nm): 85 nm
15 ml ethanol solution into ≈500 ml, needle 0.711 mm, addition 15 Secs
  Average Particle Size (nm): 150 nm
Nanoparticles with the polymer, 1 ml ethanol solution into ≈35 ml, needle 0.305 mm, addition 3 Secs
  Average Particle Size (nm): 80 nm
